Measurements as given in patent US12465652B2 (AMGEN INC., priority 2017, dated 2025).

Protein sequences, listed by entry. Tags and fused reporters are not part of them. Residues count along the entry.
UniProt P43220, 24-463 limits assumed: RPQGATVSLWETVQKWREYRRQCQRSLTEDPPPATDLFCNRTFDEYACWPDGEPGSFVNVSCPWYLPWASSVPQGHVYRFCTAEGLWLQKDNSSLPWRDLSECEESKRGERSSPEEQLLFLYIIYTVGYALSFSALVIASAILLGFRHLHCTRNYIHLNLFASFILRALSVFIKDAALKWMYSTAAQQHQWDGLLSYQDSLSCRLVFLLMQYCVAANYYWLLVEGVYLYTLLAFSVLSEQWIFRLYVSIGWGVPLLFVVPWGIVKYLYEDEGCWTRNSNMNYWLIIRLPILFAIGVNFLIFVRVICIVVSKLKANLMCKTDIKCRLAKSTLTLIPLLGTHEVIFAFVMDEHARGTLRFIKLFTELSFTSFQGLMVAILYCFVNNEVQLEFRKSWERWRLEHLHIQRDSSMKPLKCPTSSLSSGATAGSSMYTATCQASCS

target: T1, human GLP-IR (Homo sapiens, UniProt P43220); experiment: GLP1 activity | EC50 (M)
Text: Table printed on a drawing sheet, FIG. 1A Head of the field: GLP1 activity | EC50 (M) The patent's description of the figure: FIG. 1A-1B: Synthetic Peptides (FIG. 1A discloses SEQ ID NOS 3948 and 3275-3298 and FIG. 1B discloses SEQ ID NOS 3948 and 3299-3302, all respectively, in order of appearance) First copying reader's note: The first head row prints a reference sequence (residues at positions 7-35) above the position numbers; two fully empty rows separate groups of peptides. Where the first naming reader finds the target: passage: CHOK1 cells stably expressing the human GLP-IR were used to measure peptide or recombinant fusion-induced cAMP production

| EC50 [nM] | SMILES |
| --- | --- |
| 55.3 | CC[C@H](C)[C@H](NC(=O)[C@H](Cc1ccccc1)NC(=O)[C@H](CCC(=O)O)NC(=O)[C@H](CCCCN)NC(=O)[C@H](C)NC(=O)[C@H](C)NC(=O)[C@H](CCC(N)=O)NC(=O)CNC(=O)[C@H](CCC(=O)O)NC(=O)[C@H](CC(C)C)NC(=O)[C@H](Cc1ccc(O)cc1)NC(=O)[C@H](CO)NC(=O)[C@H](CO)NC(=O)[C@@H](NC(=O)[C@H](CC(=O)O)NC(=O)[C@H](CO)NC(=O)[C@@H](NC(=O)[C@H](Cc1ccccc1)NC(=O)[C@@H](NC(=O)[C@@H](NC(=O)[C@H](CCC(=O)O)NC(=O)CNC(=O)[C@@H](N)Cc1c[nH]cn1)C(C)C)[C@@H](C)O)[C@@H](C)O)C(C)C)C(=O)N[C@@H](C)C(=O)N[C@@H](Cc1c[nH]c2ccccc12)C(=O)N[C@@H](CC(C)C)C(=O)N[C@H](C(=O)N[C@@H](CCCCN)C(=O)NCC(=O)O)C(C)C [3166966#1, HGEVTFTSDVSSYLEGQAAKEFIAWLVKG] |
| 0.0044 | CC[C@H](C)[C@H](NC(=O)[C@H](Cc1ccccc1)NC(=O)[C@H](CCC(=O)O)NC(=O)[C@H](CCCCN)NC(=O)[C@H](C)NC(=O)[C@H](C)NC(=O)[C@H](CCC(N)=O)NC(=O)CNC(=O)[C@H](CCC(=O)O)NC(=O)[C@H](CC(C)C)NC(=O)[C@H](Cc1ccc(O)cc1)NC(=O)[C@H](CO)NC(=O)[C@H](CO)NC(=O)[C@@H](NC(=O)[C@H](CC(=O)O)NC(=O)[C@H](CO)NC(=O)[C@@H](NC(=O)[C@H](Cc1ccccc1)NC(=O)[C@@H](NC(=O)CNC(=O)[C@H](CC(=O)O)NC(=O)CNC(=O)[C@@H](N)Cc1c[nH]cn1)[C@@H](C)O)[C@@H](C)O)C(C)C)C(=O)N[C@@H](C)C(=O)N[C@@H](Cc1c[nH]c2ccccc12)C(=O)N[C@@H](CC(C)C)C(=O)N[C@H](C(=O)N[C@@H](CCCCN)C(=O)NCC(=O)O)C(C)C [3166734#1, HGDGTFTSDVSSYLEGQAAKEFIAWLVKG] |
| 0.00537 | CC[C@H](C)[C@H](NC(=O)[C@H](Cc1ccccc1)NC(=O)[C@H](CCC(=O)O)NC(=O)[C@H](CCCCN)NC(=O)[C@H](C)NC(=O)[C@H](C)NC(=O)[C@H](CCC(N)=O)NC(=O)CNC(=O)[C@H](CCC(=O)O)NC(=O)[C@H](CC(C)C)NC(=O)[C@H](Cc1ccc(O)cc1)NC(=O)[C@H](CO)NC(=O)[C@H](CO)NC(=O)[C@@H](NC(=O)[C@H](CC(=O)O)NC(=O)[C@H](CO)NC(=O)[C@@H](NC(=O)[C@H](Cc1ccccc1)NC(=O)[C@@H](NC(=O)CNC(=O)[C@H](Cc1c[nH]cn1)NC(=O)CNC(=O)[C@@H](N)Cc1c[nH]cn1)[C@@H](C)O)[C@@H](C)O)C(C)C)C(=O)N[C@@H](C)C(=O)N[C@@H](Cc1c[nH]c2ccccc12)C(=O)N[C@@H](CC(C)C)C(=O)N[C@H](C(=O)N[C@@H](CCCCN)C(=O)NCC(=O)O)C(C)C [3166741#1, HGHGTFTSDVSSYLEGQAAKEFIAWLVKG] |

target: T1, human GLP-IR; experiment: GLP1 activity | EC50 (pM)
Text: Table printed on a drawing sheet, FIG. 1A
Head of the field: GLP1 activity | EC50 (pM)
The patent's description of the figure: FIG. 1A-1B: Synthetic Peptides (FIG. 1A discloses SEQ ID NOS 3948 and 3275-3298 and FIG. 1B discloses SEQ ID NOS 3948 and 3299-3302, all respectively, in order of appearance)
First copying reader's note: The first head row prints a reference sequence (residues at positions 7-35) above the position numbers; two fully empty rows separate groups of peptides.
Where the first naming reader finds the target: passage: CHOK1 cells stably expressing the human GLP-IR were used to measure peptide or recombinant fusion-induced cAMP production

| SMILES | EC50 [nM] |
| --- | --- |
| CC[C@H](C)[C@H](NC(=O)[C@H](Cc1ccccc1)NC(=O)[C@H](CCC(=O)O)NC(=O)[C@H](CCCCN)NC(=O)[C@H](C)NC(=O)[C@H](C)NC(=O)[C@H](CCC(N)=O)NC(=O)CNC(=O)[C@H](CCC(=O)O)NC(=O)[C@H](CC(C)C)NC(=O)[C@H](Cc1ccc(O)cc1)NC(=O)[C@H](CO)NC(=O)[C@H](CO)NC(=O)[C@@H](NC(=O)[C@H](CC(=O)O)NC(=O)[C@H](CO)NC(=O)[C@@H](NC(=O)[C@H](Cc1ccccc1)NC(=O)[C@@H](NC(=O)CNC(=O)[C@@H](NC(=O)CNC(=O)[C@@H](N)Cc1c[nH]cn1)[C@@H](C)O)[C@@H](C)O)[C@@H](C)O)C(C)C)C(=O)N[C@@H](C)C(=O)N[C@@H](Cc1c[nH]c2ccccc12)C(=O)N[C@@H](CC(C)C)C(=O)N[C@H](C(=O)N[C@@H](CCCCN)C(=O)NCC(=O)O)C(C)C [3166739#1, HGTGTFTSDVSSYLEGQAAKEFIAWLVKG] | 0.162 |
| CC[C@H](C)[C@H](NC(=O)[C@H](Cc1ccccc1)NC(=O)[C@H](CCC(=O)O)NC(=O)[C@H](CCCCN)NC(=O)[C@H](C)NC(=O)[C@H](C)NC(=O)[C@H](CCC(N)=O)NC(=O)CNC(=O)[C@H](CCC(=O)O)NC(=O)[C@H](CC(C)C)NC(=O)[C@H](Cc1ccc(O)cc1)NC(=O)[C@H](CO)NC(=O)[C@H](CO)NC(=O)[C@@H](NC(=O)[C@H](CC(=O)O)NC(=O)[C@H](CO)NC(=O)[C@@H](NC(=O)[C@H](Cc1ccccc1)NC(=O)[C@@H](NC(=O)[C@H](CO)NC(=O)[C@H](CCC(=O)O)NC(=O)CNC(=O)[C@@H](N)Cc1c[nH]cn1)[C@@H](C)O)[C@@H](C)O)C(C)C)C(=O)N[C@@H](C)C(=O)N[C@@H](Cc1c[nH]c2ccccc12)C(=O)N[C@@H](CC(C)C)C(=O)N[C@H](C(=O)N[C@@H](CCCCN)C(=O)NCC(=O)O)C(C)C [3166965#1, HGESTFTSDVSSYLEGQAAKEFIAWLVKG] | 4.98 |
| CC[C@H](C)[C@H](NC(=O)[C@H](Cc1ccccc1)NC(=O)[C@H](CCC(=O)O)NC(=O)[C@H](CCCCN)NC(=O)[C@H](C)NC(=O)[C@H](C)NC(=O)[C@H](CCC(N)=O)NC(=O)CNC(=O)[C@H](CCC(=O)O)NC(=O)[C@H](CC(C)C)NC(=O)[C@H](Cc1ccc(O)cc1)NC(=O)[C@H](CO)NC(=O)[C@H](CO)NC(=O)[C@@H](NC(=O)[C@H](CC(=O)O)NC(=O)[C@H](CO)NC(=O)[C@@H](NC(=O)[C@H](Cc1ccccc1)NC(=O)[C@@H](NC(=O)[C@H](CCCCN)NC(=O)[C@H](CCC(=O)O)NC(=O)CNC(=O)[C@@H](N)Cc1c[nH]cn1)[C@@H](C)O)[C@@H](C)O)C(C)C)C(=O)N[C@@H](C)C(=O)N[C@@H](Cc1c[nH]c2ccccc12)C(=O)N[C@@H](CC(C)C)C(=O)N[C@H](C(=O)N[C@@H](CCCCN)C(=O)NCC(=O)O)C(C)C [3166967#1, HGEKTFTSDVSSYLEGQAAKEFIAWLVKG] | ~46900 |

The remaining lines, values ahead:

| EC50 [nM] | SMILES |
| --- | --- |
| 0.28 | CC[C@H](C)[C@H](NC(=O)[C@H](Cc1ccccc1)NC(=O)[C@H](CCC(=O)O)NC(=O)[C@H](CCCCN)NC(=O)[C@H](C)NC(=O)[C@H](C)NC(=O)[C@H](CCC(N)=O)NC(=O)CNC(=O)[C@H](CCC(=O)O)NC(=O)[C@H](CC(C)C)NC(=O)[C@H](Cc1ccc(O)cc1)NC(=O)[C@H](CO)NC(=O)[C@H](CO)NC(=O)[C@@H](NC(=O)[C@H](CC(=O)O)NC(=O)[C@H](CO)NC(=O)[C@@H](NC(=O)[C@H](Cc1ccccc1)NC(=O)[C@@H](NC(=O)CNC(=O)[C@H](CC(N)=O)NC(=O)CNC(=O)[C@@H](N)Cc1c[nH]cn1)[C@@H](C)O)[C@@H](C)O)C(C)C)C(=O)N[C@@H](C)C(=O)N[C@@H](Cc1c[nH]c2ccccc12)C(=O)N[C@@H](CC(C)C)C(=O)N[C@H](C(=O)N[C@@H](CCCCN)C(=O)NCC(=O)O)C(C)C [3166740#1, HGNGTFTSDVSSYLEGQAAKEFIAWLVKG] |
| 2.83 | CC[C@H](C)[C@H](NC(=O)[C@H](Cc1ccccc1)NC(=O)[C@H](CCC(=O)O)NC(=O)[C@H](CCCCN)NC(=O)[C@H](C)NC(=O)[C@H](C)NC(=O)[C@H](CCC(N)=O)NC(=O)CNC(=O)[C@H](CCC(=O)O)NC(=O)[C@H](CC(C)C)NC(=O)[C@H](Cc1ccc(O)cc1)NC(=O)[C@H](CO)NC(=O)[C@H](CO)NC(=O)[C@@H](NC(=O)[C@H](CC(=O)O)NC(=O)[C@H](CO)NC(=O)[C@@H](NC(=O)[C@H](Cc1ccccc1)NC(=O)[C@@H](NC(=O)CNC(=O)[C@H](Cc1ccc(O)cc1)NC(=O)CNC(=O)[C@@H](N)Cc1c[nH]cn1)[C@@H](C)O)[C@@H](C)O)C(C)C)C(=O)N[C@@H](C)C(=O)N[C@@H](Cc1c[nH]c2ccccc12)C(=O)N[C@@H](CC(C)C)C(=O)N[C@H](C(=O)N[C@@H](CCCCN)C(=O)NCC(=O)O)C(C)C [3166738#1, HGYGTFTSDVSSYLEGQAAKEFIAWLVKG] |
| 3.04 | CC[C@H](C)[C@H](NC(=O)[C@H](Cc1ccccc1)NC(=O)[C@H](CCC(=O)O)NC(=O)[C@H](CCCCN)NC(=O)[C@H](C)NC(=O)[C@H](C)NC(=O)[C@H](CCC(N)=O)NC(=O)CNC(=O)[C@H](CCC(=O)O)NC(=O)[C@H](CC(C)C)NC(=O)[C@H](Cc1ccc(O)cc1)NC(=O)[C@H](CO)NC(=O)[C@H](CO)NC(=O)[C@@H](NC(=O)[C@H](CC(=O)O)NC(=O)[C@H](CO)NC(=O)[C@@H](NC(=O)[C@H](Cc1ccccc1)NC(=O)[C@@H](NC(=O)CNC(=O)[C@H](Cc1ccccc1)NC(=O)CNC(=O)[C@@H](N)Cc1c[nH]cn1)[C@@H](C)O)[C@@H](C)O)C(C)C)C(=O)N[C@@H](C)C(=O)N[C@@H](Cc1c[nH]c2ccccc12)C(=O)N[C@@H](CC(C)C)C(=O)N[C@H](C(=O)N[C@@H](CCCCN)C(=O)NCC(=O)O)C(C)C [3166737#1, HGFGTFTSDVSSYLEGQAAKEFIAWLVKG] |
